PKA-R2B activ = activators of human PKA-R2B complex; P22694+P31323; PKA-R2B holoenzyme dissociation, Cy5-IP20 fluorescence polarization; R2B truncated from residue 108, S112A mutant; 0% DMSO only, 100% 113 µM cGMP; activation, % at 11.4 µM; 340,000 compounds, 0.079% hits;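 active = activation above a cutoff set at the mean over all compounds plus 3 SD, cut at about 18% in these data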;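 note: higher means more holoenzyme dissociation and a rise in polarization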
ABCB6 inh 2 = inhibitors of human ABC transporter ABCB6 | Q9NP58 | K562-ABCB6 porphyrin accumulation, flow cytometry, 1 h; hits give low values | fluorescence ratio to DMSO, % at 10 µM | 360,000 compounds, 0.19% hits | AID 602162;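 active = fluorescence ratio to DMSO below 75%, the collection mean minus 3 SD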;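 note: signal is porphyrin accumulated inside mitochondria; lower ratio means ABCB6 inhibition with less porphyrin fluorescence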
p-CIP stab down = p/CIP protein destabilization | F442A p/CIP-EGFP cells, EGFP fluorescence, 16 h | 290,000 compounds, 0.01% hits | Q05BA5 | decrease of EGFP signal, % at 10 µM;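 active = EGFP signal decrease of at least 30% at 10 µM or well 3 SD below plate mean, unless failing retest; inactive = the rest, including hits failing retest or dose response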
Granule exo inh = lytic granule exocytosis inhibition; TALL-104 LAMP-1 surface exposure, flow cytometry; cells stimulated with thapsigargin and PMA; inhibition, % at 10 µM; 360,000 compounds, 0.66% hits;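 active = inhibition above about 55%, limit read from the data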
PKA-R1A activ = PKA-R1A complex activation. P00514+P68181. PKA-R1A dissociation, Cy5-IP20 fluorescence polarization; scaled: DMSO 0%, 113 µM cGMP 100%. activation, % at 11.4 µM. 340,000 compounds, 0.083% hits. AID 504707;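 active = percent activation above the mean of all tested compounds plus 3 SD, cut at about 19% in these data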;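 note: higher means more PKAc released from R1A so a rise in polarization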
Yeast UUG start = modulators of yeast start codon fidelity, primary screen, whole organism, S. cerevisiae, single point, plate reader; S. cerevisiae UUG-firefly luciferase reporter, luminescence/redox ratio; activity score, % at 18.7 µM; 0.13% of 350,000 active; AID 602363, 2012;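 active = replicate mean at a twofold rise or more, about +100% in these data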;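 also: firefly luciferase made from a UUG start codon reports start codon fidelity; reporter light over untreated wells divided by growth signal over untreated wells; some hits fall short of that in this replicate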
R2B FP artifact = fluorescence polarization artifact in PKA-R2B activator counter-screen | activation, % at 11.4 µM | 270 compounds, 6% hits | shares compounds with PKA-R2B activ | FP artifact counterscreen; in the data active = activation above about 20%;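 note: Cy5 labelled IP20 peptide probe with compound but no PKA protein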
PKA-R2B act conf = confirmation of human PKA-R2B complex activators. shares compounds with PKA-R2B activ. fluorescence polarization, activation. 270 compounds, 9% hits. activation, % at 11.4 µM; in the data active = activation above about 19%
R1A FP artifact = counter-screen for PKA-R1A activators: fluorescence polarization artifacts. activation, % at 11.4 µM. 280 compounds, 7% hits. AID 504799. shares compounds with PKA-R1A activ. Cy5-IP20 peptide alone, fluorescence polarization artifact counterscreen;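 active = mean activation over triplicate runs exceeds the adjusted cutoff derived for the parent primary screen, cut at about 19% in these data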;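 note: no PKA protein present so any polarization rise reflects compound interference; higher means stronger polarization artifact and likely false positive in parent screen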
PKA-R1A confirm = confirmation of PKA-R1A complex activators; shares compounds with PKA-R1A activ; Cy5-IP20 fluorescence polarization, PKA-R1A holoenzyme dissociation; activation, % at 11.4 µM; 280 compounds, 9% hits; AID 504800;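 active = mean activation over replicate wells exceeds the adjusted hit threshold taken from the earlier primary screen, cut at about 20% in these data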
Of the large screens only hits and unclear results are named; the others gave an inactive call (follow-up assays come after a bar, where they were run). A selection: hits, their analogues and other compounds. The true share with any hit is near 0.94%.

CCCC1Nc2ccc(C(=O)O)cc2C2C=CCC12 (stereo not drawn)	PKA-R2B activ 19, PKA-R1A activ 23 | R2B FP artifact 21 | PKA-R2B act conf 20 | R1A FP artifact 21 | PKA-R1A confirm 24
CCC1=NN2C(=N)/C(=C/c3ccc(OS(=O)(=O)c4ccccc4)cc3)C(=O)N=C2S1	PKA-R2B activ 29, PKA-R1A activ 22 (no result: Yeast UUG start) | R2B FP artifact 23 | PKA-R2B act conf 23 | R1A FP artifact 23 | PKA-R1A confirm 28
CCS(=O)(=O)C1=NN2C(=N)/C(=C\c3ccc(OS(=O)(=O)c4ccccc4)cc3)C(=O)N=C2S1	none
CC(C)NC(=O)Nc1ccc2c(c1)C(=O)N([C@@H](C)CO)C[C@@H](C)[C@H](CN(C)CC1CCCCC1)O2	none (no result: PKA-R2B activ, ABCB6 inh 2, p-CIP stab down, Granule exo inh, PKA-R1A activ)
COc1ccc(-c2cnc3c(c2)C(=O)N([C@@H](C)CO)C[C@H](C)[C@@H](CN(C)Cc2cccnc2)O3)cc1	none (no result: PKA-R2B activ, ABCB6 inh 2, p-CIP stab down, Granule exo inh, PKA-R1A activ)
COc1ccc2oc(C(=O)OCC(=O)Nc3ccc(NC(C)=O)cc3)c(C)c2c1	PKA-R2B activ 25, PKA-R1A activ 20 (no result: p-CIP stab down) | R2B FP artifact inactive | PKA-R2B act conf inactive | R1A FP artifact inactive | PKA-R1A confirm inactive
CCn1c(SCC(=O)Nc2nccs2)nnc1-c1cc2cccc(OC)c2o1	none (no result: Yeast UUG start)
COc1cccc2cc(-c3nnc(SCC(=O)Nc4cc(C(F)(F)F)ccc4Cl)n3N)oc12	PKA-R1A activ 20 | R1A FP artifact inactive | PKA-R1A confirm inactive
CCOc1ccccc1Nc1nc(N)nc(CSc2nncn2C)n1	PKA-R1A activ 21 (no result: Yeast UUG start) | R1A FP artifact inactive | PKA-R1A confirm inactive
Cc1cccn2c(CN[C@@H]3CCCC[C@H]3c3ccccc3)c(C(=O)N3CCOCC3)nc12	PKA-R1A activ 19 | R1A FP artifact inactive | PKA-R1A confirm inactive
Cc1cccn2c(CNC3CCCc4ccccc43)c(C(=O)N3CCOCC3)nc12 (stereo not drawn)	none
CC#CC(=O)NC1CCCN(C2Cc3ccccc3C2)C1 (stereo not drawn)	PKA-R1A activ 19 | R1A FP artifact inactive | PKA-R1A confirm inactive
C/C(=N\NC(=O)c1ccc(Cl)cc1)c1cccs1	none
C/C(=N/NC(=O)c1cccs1)c1ccc(NC(=O)COc2ccc(Cl)cc2)cc1	PKA-R1A activ 19 | R1A FP artifact inactive | PKA-R1A confirm inactive
CCNC(=O)C[C@H]1CC[C@@H]2[C@@H](COc3ccc(NC(=O)c4ccccc4)cc3C(=O)N2C)O1	none (no result: PKA-R2B activ, ABCB6 inh 2, p-CIP stab down, Granule exo inh, PKA-R1A activ)
CCOC(=O)N1CCc2c(sc3ncn(C)c(=O)c23)C1	PKA-R1A activ 19 (no result: Yeast UUG start) | R1A FP artifact inactive | PKA-R1A confirm inactive
CCOC(=O)N1CCc2c(sc3nc(SC(C)C)n(N)c(=O)c23)C1	none (no result: Yeast UUG start)
N#Cc1ccc(C(=O)NCCCSc2ccccc2)cc1	none
CN(C)c1ccc(C(=O)NCCCSc2ccccc2)cc1	PKA-R1A activ 20 | R1A FP artifact inactive | PKA-R1A confirm inactive
O=C(COC(=O)C1CC(=O)N(Cc2ccco2)C1)Nc1ccc(F)cc1F (stereo not drawn)	PKA-R1A activ 20 (no result: p-CIP stab down) | R1A FP artifact inactive | PKA-R1A confirm inactive
CCc1ccc(NC(=O)CSc2nnc(-c3ccccn3)n2C)cc1	PKA-R1A activ 19 (no result: Yeast UUG start) | R1A FP artifact inactive | PKA-R1A confirm inactive
COc1ccc(N2C(=O)CSC2c2ccc([N+](=O)[O-])cc2)cc1 (stereo not drawn)	PKA-R1A activ 20 | R1A FP artifact inactive | PKA-R1A confirm inactive
COc1ccc(CN(C)CC(=O)NC(=O)NCc2ccccc2)cc1OC	PKA-R1A activ 21 (no result: Yeast UUG start) | R1A FP artifact inactive | PKA-R1A confirm inactive
CCn1cc([N+](=O)[O-])c(C(=O)Nc2c(C)nn(Cc3cccc(F)c3)c2C)n1	PKA-R1A activ 19 (no result: Yeast UUG start) | R1A FP artifact inactive | PKA-R1A confirm inactive
CCCC1=NN(c2ccc([N+](=O)[O-])cc2)C(=O)/C1=C/N(C)C	PKA-R1A activ 19 (no result: Yeast UUG start) | R1A FP artifact inactive | PKA-R1A confirm inactive
CC1=NN(c2ccc([N+](=O)[O-])cc2)C(=O)/C1=C\N(C)C	none (no result: Yeast UUG start)
COc1ccc(-c2cnc3c(c2)C(=O)N([C@@H](C)CO)C[C@H](C)[C@@H](CN(C)C(=O)C2CCC2)O3)cc1	none (no result: PKA-R2B activ, ABCB6 inh 2, p-CIP stab down, Granule exo inh, PKA-R1A activ)
COc1ccccc1-c1noc(-c2cc(OC)c(OC)c(OC)c2)n1	none
COc1cc(OC)cc(-c2nc(-c3ccccc3OC)no2)c1	PKA-R1A activ 19 | R1A FP artifact inactive | PKA-R1A confirm inactive
CCC(=O)N(C)C[C@H]1Oc2ncc(-c3ccccc3OC)cc2C(=O)N([C@H](C)CO)C[C@@H]1C	none (no result: PKA-R2B activ, ABCB6 inh 2, p-CIP stab down, Granule exo inh, PKA-R1A activ)
COc1ccc(Nc2cc(C)nc3ncnn23)cc1Cl	PKA-R1A activ 22 | R1A FP artifact inactive | PKA-R1A confirm inactive
CCc1cc(Cn2nc(-c3ccccc3C)cc2C(=O)O)on1	PKA-R1A activ 19 (no result: p-CIP stab down) | R1A FP artifact inactive | PKA-R1A confirm inactive
CCOC(=O)c1cc(-c2ccccc2C)nn1Cc1cc(C)no1	none (no result: p-CIP stab down)
Cc1ccc(S(=O)(=O)NCCn2cnc([N+](=O)[O-])n2)cc1	PKA-R1A activ 21 | R1A FP artifact inactive | PKA-R1A confirm inactive
Cc1ccc(-c2cnc3c(c2)C(=O)N([C@@H](C)CO)C[C@@H](C)[C@@H](CN(C)Cc2ccccc2C(=O)O)O3)cc1	none (no result: PKA-R2B activ, ABCB6 inh 2, p-CIP stab down, Granule exo inh, PKA-R1A activ)
Cc1cc(C)c2c(CC(=O)NNC(=O)c3ccccc3)coc2c1	PKA-R1A activ 27 | R1A FP artifact inactive | PKA-R1A confirm inactive
Cc1cc(C)c2c(CC(=O)NC(C)C)coc2c1	none (no result: Yeast UUG start)
CC1CCC2(CC1)NC(=S)N(c1ccccc1)N2 (stereo not drawn)	PKA-R1A activ 19 | R1A FP artifact inactive | PKA-R1A confirm inactive
COc1ccc2c(c1OC)C(=O)OC2Nc1ncccc1C (stereo not drawn)	PKA-R1A activ 19 | R1A FP artifact inactive | PKA-R1A confirm inactive
C[C@@H]1CCCCO[C@@H](CN(C)S(C)(=O)=O)[C@H](C)CN([C@@H](C)CO)C(=O)c2cc(NS(=O)(=O)c3ccc(Cl)cc3)ccc2O1	none (no result: PKA-R2B activ, ABCB6 inh 2, p-CIP stab down, Granule exo inh, PKA-R1A activ)
Cc1ccc(C(C(=O)NC2CCCC2)N(C(=O)c2csnn2)c2ccccc2)o1 (stereo not drawn)	PKA-R1A activ 20 | R1A FP artifact inactive | PKA-R1A confirm inactive
CCN1C(=O)/C(=C/N(C)C)c2ccccc21	PKA-R1A activ 19 | R1A FP artifact inactive | PKA-R1A confirm inactive

Compound activity (PubChem BioAssay)
